Molecular target: Serine/threonine-protein kinase pim-1 (Homo sapiens, UniProt P11309)
Assay: Inhibition of recombinant PIM1 (unknown origin) assessed as change in melting temperature at 10 uM by SYPRO orange dye-based differential scanning fluorimetric method

Chains of the proteins cited; added tags and fusions are not shown.
UniProt P11309, whole entry, looked up: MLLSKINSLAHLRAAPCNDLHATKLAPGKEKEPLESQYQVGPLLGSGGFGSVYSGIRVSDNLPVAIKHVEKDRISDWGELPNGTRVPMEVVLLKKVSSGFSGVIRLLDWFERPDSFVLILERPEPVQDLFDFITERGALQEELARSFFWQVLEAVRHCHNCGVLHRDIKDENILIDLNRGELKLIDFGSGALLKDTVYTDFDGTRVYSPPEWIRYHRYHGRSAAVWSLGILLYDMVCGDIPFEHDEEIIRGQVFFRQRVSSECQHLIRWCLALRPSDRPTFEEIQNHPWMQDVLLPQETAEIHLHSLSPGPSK

ΔTm [°C]	SMILES
1.9	O=C1NC(=S)n2c1cc1cccc(Cl)c1c2=O
2	O=C1NC(=S)n2c1cc1ccc(-c3ccncc3)cc1c2=O
1.9	O=C1NC(=S)n2c1cc1ccc(Nc3ccccc3)cc1c2=O
5.1	O=C1NC(=S)n2c1cc1cc(Cl)ccc1c2=O

Reference: ChEMBL document CHEMBL4028814, “Thiazolidine derivatives as potent and selective inhibitors of the PIM kinase family” (Bioorg Med Chem, 2017)
